Key:
[1] = biological target: 5-hydroxytryptamine receptor 1D (Rattus norvegicus, UniProt P28565)
[2] = biological target: 5-hydroxytryptamine receptor 1B (Rattus norvegicus, UniProt P28564)

Chains of the proteins cited; added tags and fusions are not shown. Lines headed by an entry give the natural chain unless they say otherwise; changes in a name come on top.
UniProt P28565: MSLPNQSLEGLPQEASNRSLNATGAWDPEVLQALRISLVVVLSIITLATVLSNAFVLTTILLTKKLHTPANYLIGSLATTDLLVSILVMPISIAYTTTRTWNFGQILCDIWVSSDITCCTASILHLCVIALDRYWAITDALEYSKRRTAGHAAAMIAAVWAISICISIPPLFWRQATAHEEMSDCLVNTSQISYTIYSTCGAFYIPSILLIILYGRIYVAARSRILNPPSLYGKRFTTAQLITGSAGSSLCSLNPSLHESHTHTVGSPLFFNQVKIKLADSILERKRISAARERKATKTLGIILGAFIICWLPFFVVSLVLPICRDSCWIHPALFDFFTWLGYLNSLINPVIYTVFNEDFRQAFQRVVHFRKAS
UniProt P28564, whole entry: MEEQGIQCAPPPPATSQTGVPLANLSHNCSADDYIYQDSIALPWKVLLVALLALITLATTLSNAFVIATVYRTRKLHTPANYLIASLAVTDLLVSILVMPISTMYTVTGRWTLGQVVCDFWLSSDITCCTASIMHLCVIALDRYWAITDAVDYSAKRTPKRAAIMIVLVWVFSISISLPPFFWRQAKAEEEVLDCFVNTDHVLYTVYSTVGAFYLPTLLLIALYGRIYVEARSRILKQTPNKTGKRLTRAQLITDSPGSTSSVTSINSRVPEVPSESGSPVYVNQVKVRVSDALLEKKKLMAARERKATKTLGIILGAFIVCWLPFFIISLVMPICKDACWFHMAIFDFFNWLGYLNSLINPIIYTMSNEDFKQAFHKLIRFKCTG

CCCN(CCC)C1CCc2cccc(O)c2C1 (configuration not stated)
Ki [1]: 0.955 µM | Ki [2]: 7.24 µM

Source: BindingDB's records for doi:10.1007/bf00168557 (Boehringer Ingelheim Italia, 1995)
